# According to PubChem BioAssay AID485272 (The Scripps Research Institute Molecular Screening Center, 2010):
# The chains behind the UniProt entries cited, without tags or fusion partners.
# UniProt Q9UM07, whole entry: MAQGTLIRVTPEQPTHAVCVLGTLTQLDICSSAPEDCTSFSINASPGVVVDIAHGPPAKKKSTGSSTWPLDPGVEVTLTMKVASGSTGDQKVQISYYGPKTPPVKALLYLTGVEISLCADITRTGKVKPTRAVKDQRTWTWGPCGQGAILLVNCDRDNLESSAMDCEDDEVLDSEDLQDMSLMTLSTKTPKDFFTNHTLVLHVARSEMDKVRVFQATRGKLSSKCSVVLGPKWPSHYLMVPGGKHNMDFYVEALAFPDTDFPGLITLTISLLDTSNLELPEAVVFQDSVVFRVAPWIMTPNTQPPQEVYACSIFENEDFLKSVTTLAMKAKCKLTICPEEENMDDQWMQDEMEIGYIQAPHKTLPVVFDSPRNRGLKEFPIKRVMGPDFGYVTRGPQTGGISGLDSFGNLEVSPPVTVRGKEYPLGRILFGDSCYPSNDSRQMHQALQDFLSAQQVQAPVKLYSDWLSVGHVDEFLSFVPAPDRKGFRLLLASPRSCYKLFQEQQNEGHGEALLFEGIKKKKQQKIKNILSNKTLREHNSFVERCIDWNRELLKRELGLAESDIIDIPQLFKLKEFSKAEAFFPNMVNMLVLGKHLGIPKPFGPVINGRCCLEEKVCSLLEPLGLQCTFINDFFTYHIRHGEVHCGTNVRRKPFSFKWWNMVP
# The list shows a part of the results, in another mix than the full data. Active and inactive are the calls of the source.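 The calls were made as follows: active = percent inhibition above a cutoff equal to the mean of all tested compounds plus 3 SD (cut at about 15% in these data); inactive = the rest.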
# Target: Protein-arginine deiminase type-4 (Homo sapiens) (UniProt Q9UM07)
# Test: human PAD4 inhibitors, primary screen, biochemical, fluorescence polarization, 1536-well format (AID 485272);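 also: 0% = PAD4 with RCA probe and DMSO and 100% = probe without PAD4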
# Conditions: recombinant PAD4, RCA probe fluorescence polarization; at 6.36 µM; active compounds read high
row,SMILES,inhibition
1,CCC(=O)N(c1ccccc1)C1(COC)CCN(CCc2cccs2)CC1,inactive: -2.32%
2,CCC(=O)N(c1ccccc1)C1(COC)CCN(CCn2nnn(CC)c2=O)CC1,inactive: -1.03%
